The text below walks through data of patent US8399712B2 (priority 2010, dated 2013).

This data set can be described thus: Slurrying in water, resulting solid form. The data set is classed as physicochemical. To be noted: three days.

Regarding pterostilbene:piperazine [cocrystal 4], the “Behaviour upon slurrying in water” value is listed as “precipitation of pterostilbene”.
